Measured values as given in PMC11408749.

By UniProt entry, the sequences of proteins in these tests, tags left out. Residues count along the entry.
UniProt Q9UJW3, 179-379: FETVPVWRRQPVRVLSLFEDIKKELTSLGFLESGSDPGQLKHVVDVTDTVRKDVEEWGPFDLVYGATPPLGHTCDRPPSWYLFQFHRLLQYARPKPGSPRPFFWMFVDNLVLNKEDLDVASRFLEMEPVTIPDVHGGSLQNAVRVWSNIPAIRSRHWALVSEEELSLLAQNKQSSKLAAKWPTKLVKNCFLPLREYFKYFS

Target: DNA MTase‐like domain of DNMT3L (residues 179–379) (UniProt Q9UJW3)
Assay: AUC; sedimentation velocity, 40,000 rpm, 15 h, 20 C; 20 mM Tris-HCl pH 8.0, 300 mM NaCl, 1 mM TCEP, 5% glycerol; WT DNMT3BΔ214-3L at 2.5, 5.0 and 6.25 uM, mutant complexes at 5 uM; c(s) model in SEDFIT

DNMT3BΔ214 (residues 215–853), wild type
percent of the population in the DNMT3B-3L heterodimer peak (78 kDa); the rest mostly hetero-tetramer: a minor peak with an estimated MW of 78 kDa (2%)
